From US20250101011A1, “PEPTIDYL NITRILE COMPOUND AND USE THEREOF” (SHANGHAI YIDIAN PHARMACEUTICAL TECHNOLOGY DEVELOPMENT CO., …, priority 2022, published 2025)

Protein sequences, listed by entry. Tags and fused reporters are not part of them. Residues count along the entry.
UniProt P53634, 25-463 limits assumed: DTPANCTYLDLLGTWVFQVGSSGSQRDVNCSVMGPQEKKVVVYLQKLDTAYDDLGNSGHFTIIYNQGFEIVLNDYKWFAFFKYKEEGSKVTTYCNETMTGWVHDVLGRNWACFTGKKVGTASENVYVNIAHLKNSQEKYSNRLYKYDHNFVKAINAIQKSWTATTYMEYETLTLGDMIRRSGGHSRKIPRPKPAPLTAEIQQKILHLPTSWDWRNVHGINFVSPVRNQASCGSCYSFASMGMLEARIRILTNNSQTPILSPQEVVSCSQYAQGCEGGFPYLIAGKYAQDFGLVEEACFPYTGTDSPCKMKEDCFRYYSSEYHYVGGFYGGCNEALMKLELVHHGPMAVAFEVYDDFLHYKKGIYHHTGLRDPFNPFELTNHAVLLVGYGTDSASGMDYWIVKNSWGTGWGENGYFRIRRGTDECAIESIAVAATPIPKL
UniProt P53634, 25-134 limits assumed: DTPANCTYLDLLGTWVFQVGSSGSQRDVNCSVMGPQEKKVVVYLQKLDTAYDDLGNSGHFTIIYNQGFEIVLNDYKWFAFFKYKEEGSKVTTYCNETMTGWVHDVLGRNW
UniProt P53634, 231-394 limits assumed: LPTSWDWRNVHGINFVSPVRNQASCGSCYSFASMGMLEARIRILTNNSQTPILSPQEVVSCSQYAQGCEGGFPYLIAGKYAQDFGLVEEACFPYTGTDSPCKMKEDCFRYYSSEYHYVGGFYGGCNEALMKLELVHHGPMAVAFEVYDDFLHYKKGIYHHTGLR
UniProt P53634, 395-463 limits assumed: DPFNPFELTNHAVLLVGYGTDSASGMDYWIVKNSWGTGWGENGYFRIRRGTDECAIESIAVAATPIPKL

Columns and labels:
[1] = molecular target: DPP1 (Homo sapiens (Human), UniProt P53634); assay: DPP1 activity inhibition test on U937 cells; assay type: cell-based; details: substrate h-Gly-phe-AFC; for Average Inhibition % @5 nM: 5 nM compound; for Average Inhibition % @50 nM: 50 nM compound; for IC50: intracellular enzyme activity
[2] = molecular target: rhCathepsin C/DPP1 (Homo sapiens (Human), UniProt P53634); assay: Test for inhibition of DPP1 enzyme activity; assay type: biochemical; details: recombinant human cathepsin C/DPP1; substrate Gly-Arg-AMC

Average Inhibition % @5 nM [1] | Average Inhibition % @50 nM [1] | IC50 [1] [nM] | IC50 [2] [nM] | Structure (SMILES)
+ (“+”: 30% ≤ inhibition % < 75%) | ++ (“++”: 75% ≤ inhibition % < 100%) | 9 | 1.4 | Cn1c(=O)oc2ccc(-c3ccc(C[C@@H](C#N)NC(=O)[C@@H]4CNCC5(CC5)CO4)cc3)cc21
+ (“+”: 30% ≤ inhibition % < 75%) | ++ (“++”: 75% ≤ inhibition % < 100%) | 11 | 0.79 | N#C[C@H](Cc1ccc(-c2ccc3c(c2)C2(CCN(C4COC4)CC2)OC3)cc1F)NC(=O)[C@@H]1CNCCCO1
